Molecules are shown by their SMILES. Only a part is listed here, and it is no random draw. Active and inactive are the calls of the source.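 How the source made its calls: active means B-score under library mean minus 4 SD, starting fluorescence ratio at most library mean plus 5 SD; inactive means the rest.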

Chains of the proteins cited; added tags and fusions are not shown.
UniProt O14649, whole entry: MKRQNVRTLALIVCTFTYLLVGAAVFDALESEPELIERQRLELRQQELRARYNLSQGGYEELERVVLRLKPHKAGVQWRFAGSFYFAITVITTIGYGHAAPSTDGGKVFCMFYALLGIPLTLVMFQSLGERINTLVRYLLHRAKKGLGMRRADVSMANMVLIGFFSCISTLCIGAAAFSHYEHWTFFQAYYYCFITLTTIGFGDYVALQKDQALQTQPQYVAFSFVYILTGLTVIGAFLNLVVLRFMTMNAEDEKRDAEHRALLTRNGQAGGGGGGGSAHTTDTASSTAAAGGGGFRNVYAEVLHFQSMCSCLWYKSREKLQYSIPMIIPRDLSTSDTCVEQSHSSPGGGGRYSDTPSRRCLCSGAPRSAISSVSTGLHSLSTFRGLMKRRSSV

The target of the assay is Potassium channel subfamily K member 3 (Homo sapiens) (UniProt O14649). Nature of the assay: human KCNK3 channel inhibitors, primary screen, CHO cells, FluxOR thallium flux, B-score (AID 602410). As to conditions: FluxOR fluorescence, at 10 µM.
As to `O=P1(Nc2ncccn2)COc2ccccc2OC1`, the outcome was inactive.
Then `CN1CCCCC1COC(=O)C1(O)c2ccccc2CCc2ccccc21` (stereo unspecified), with “inactive”; and `COc1ccccc1OP(C)(=O)Nc1c(C)cccc1C` (stereo unspecified), with “inactive”; and `CCOC(=O)C(CC)C1=NC(C)(C)Cc2ccccc21.O=[N+]([O-])c1cc([N+](=O)[O-])c(O)c([N+](=O)[O-])c1` (stereo unspecified), with “inactive”.
Then `O=[N+]([O-])c1cc([N+](=O)[O-])c(Nc2nnnn2CCO)c([N+](=O)[O-])c1`, with “inactive”; and `CC1=C2N=C(C=C3N=C(C(C)=C4[N-][C@@](C)([C@@H]5N=C1[C@](C)(CCC(=O)NC[C@@H](C)OP(=O)([O-])O[C@H]1[C@@H](O)[C@@H](n6cnc7cc(C)c(C)cc76)O[C@@H]1CO)[C@H]5CC(N)=O)[C@@](C)(CC(N)=O)[C@@H]4CCC(N)=O)[C@@](C)(CC(N)=O)[C@@H]3CCC(N)=O)C(C)(C)[C@@H]2CCC(N)=O.[C-]#N.[Co+3]`, with “inactive”.
Then `CN(C)C1(CNC(=O)c2ccc(S(C)(=O)=O)cc2)CCCCC1`, with “inactive”; and `CCCC1OP(=O)(Nc2ccccc2)OCC1CC` (stereo unspecified), with “inactive”; and `O=C(/C=C/c1ccccc1)OC1CN2CCC1CC2` (stereo unspecified), with “inactive”.
As for `Cc1ccc(C(=O)OC2CN3CCC2CC3)cc1` (stereo unspecified), the outcome was inactive.
Then `CC1CCC(C(C)C)C(OP(=O)(Nc2ccccn2)c2ccccc2)C1` (stereo unspecified), with “inactive”; and `Cc1nn(-c2ccccc2)c2c1P(=O)(N1CCOCC1)N(C)C(c1ccccc1)=N2` (stereo unspecified), with “inactive”.
Take `COc1cc(C2NCCC3(OCCO3)C2(C)C)cc(OC)c1OC.O=[N+]([O-])c1cc([N+](=O)[O-])c(O)c([N+](=O)[O-])c1` (stereo unspecified): the molecule was called inactive.
With `CN(C(=O)Cc1ccc(Cl)c(Cl)c1)[C@@H]1CCCC[C@H]1N1CCCC1`, the call was inactive.
On to `CC(C)/C=N\N=C(\N)N[N+](=O)[O-]`, for which the outcome was inactive.
As for `Cc1nc2ccc3ccccc3c2s1.O=[N+]([O-])c1cc([N+](=O)[O-])c(O)c([N+](=O)[O-])c1`, the result was inactive.
Then `CC1(CBr)Cn2c(nc3ccccc3c2=O)S1` (stereo unspecified), with “inactive”; and `O=[N+]([O-])c1cc([N+](=O)[O-])c(-c2cnn(-c3ccccc3)c2)c([N+](=O)[O-])c1`, with “inactive”; and `COc1ccccc1CNC(=O)COC(=O)C(O)(c1ccccc1)c1ccccc1`, with “inactive”.
Then `CC(C)(C)C(=O)NC(Sc1ncccn1)C(Cl)(Cl)Cl` (stereo unspecified), with “inactive”; and `Clc1n[nH]nc1-c1nn[nH][15n]1`, with “inactive”; and `CCOP(=O)(NC(=NC(C)c1ccccc1)NC(C)c1ccccc1)OCC` (stereo unspecified), with “inactive”.
For the molecule `O=[N+]([O-])c1cc([N+](=O)[O-])c(-n2nnc3ccccc32)c([N+](=O)[O-])c1`, the result was inactive.
Then `CCC1=CC2Cc3nc4ccc(Cl)cc4c(N)c3C(C1)C2` (stereo unspecified), with “inactive”; and `O=P1(Nc2ccccn2)COc2ccccc2OC1`, with “inactive”; and `CCOP(=O)(Nc1ccc(C)cn1)OCC`, with “inactive”.
